scFv variants of Ab-91 (heavy chain) against a SARS-CoV-2 spike peptide

Reference: Engelhart et al. 2022, doi:10.1038/s41597-022-01779-4. File: FLAb, binding data.

Binding partner: SARS-CoV-2 spike HR2 peptide, sequence PDVDLGDISGINAS.

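Phage display of a naive human antibody library on the peptide gave the parent. The library (AAYL51) carries one to three amino acid substitutions per variant, with no insertions or deletions. The assay is AlphaSeq: two haploid yeast populations carry antibody and antigen on their surface. Mating (16 h, 30 °C) was followed by selection of diploids and sequencing of their barcodes. Each replicate has its own calibration line, from reference interactions of the BCL2 family. Each pool was mated in three replicate cultures.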

Parent: Ab-91, a human scFv built as VL, the linker GGGGSGGGGSGGGGS, VH. Only the CDRs of the heavy chain vary.
VL: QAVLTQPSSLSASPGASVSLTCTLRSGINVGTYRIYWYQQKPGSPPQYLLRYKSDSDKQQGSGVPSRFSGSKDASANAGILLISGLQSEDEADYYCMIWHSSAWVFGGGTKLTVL
VH: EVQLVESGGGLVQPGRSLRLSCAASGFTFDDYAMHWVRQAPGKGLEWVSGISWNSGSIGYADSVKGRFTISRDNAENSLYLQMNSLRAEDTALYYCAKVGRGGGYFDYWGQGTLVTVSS

Variants are written as CDR1, CDR2 and CDR3 of the heavy chain (limits as in the source). Parent: GFTFDDYAMH, GISWNSGSIGYADSVK, VGRGGGYFDY. Every variant below is changed at G102 of the VH (sequential numbering). Kd is apparent (estimated from mating counts) and averaged on the log scale over replicates with a signal. Smaller is tighter. "no signal" marks a missing value. The strain was present, yet no cells mated with the target were sequenced in any replicate, which points to weak or no binding. Three control strains display no target. For library AAYL51, 21% of the pairings with them gave a signal, with a median of 34 µM and one signal in twenty below 1.8 µM, so weak values seen in few replicates may be background. The control count says in how many pairings with the empty strains this scFv gave a signal.

GFTFDDYAMH, GISWNSGSIGIADSVK, VGRYGGYFCY: 30 µM (1 of 3 replicates; controls 1 of 9).
GFTFDDYAMH, GISWNSGSIGYADSVK, VGRQKGYFDY: no signal (0 of 3 replicates; controls 0 of 9).
GFTFDDYAMH, GISWNSGSIGYADMVK, VGRTGGYFAY: 96 µM (3 of 3 replicates; controls 7 of 9).
GFTFDHYAMH, GISVNSGSIGYADSVK, VGRKGGYFDY: no signal (0 of 3 replicates; controls 1 of 9).
GFTFDDYAMH, GISNNSISIGYADSVK, VGRNGGYFDY: 170 nM (1 of 3 replicates; controls 1 of 9).
GFTFDDYAMH, GISWNSGSIGYADSVT, MGRNGGYFDY: no signal (0 of 3 replicates; controls 0 of 9).
GFTFDDYAMH, GISWNHGSIGYAFSVK, VGRPGGYFDY: no signal (0 of 3 replicates; controls 0 of 9).
GFTFDDYAMH, GISWNSGSILYADSVK, VGRMGGYFDY: no signal (0 of 3 replicates; controls 0 of 9).
GFTFDDDAMH, GISWNSQSIGYADSVK, VGRNGGYFDY: no signal (0 of 3 replicates; controls 0 of 9).
GFTFDDYAMH, GISWNSGSIGYADSVI, VGRALGYFDY: 2.0 µM (1 of 3 replicates; controls 1 of 9).
GFRFDDYAMH, GISWNSGSIVYADSVK, VGRCGGYFDY: 210 µM (1 of 3 replicates; controls 4 of 9).
GFYFDDYAMH, GISWNSGSIGYADSVK, VGRNGGYFDY: no signal (0 of 3 replicates; controls 0 of 9).
GFTFDDLAMH, GISWNSGSIGYADSVK, VGRCGGYFYY: 36 µM (1 of 3 replicates; controls 1 of 9).
GFTFDDYAMH, GISWNSGSIGYADSVK, VGRHGGYQDY: 27 nM (3 of 3 replicates; controls 3 of 9).
GFTFDKYAMH, GISWNSGSIGYADSVW, VGRLGGYFDY: 42 nM (3 of 3 replicates; controls 2 of 9).
GFTFDDYAMH, GISWNSGKIGYADSVD, VGRQGGYFDY: no signal (0 of 3 replicates; controls 0 of 9).
GFTFDDYTMH, GISWNSGSIGYADSLK, VGRYGGYFDY: 470 µM (1 of 3 replicates; controls 1 of 9).
GFTKDDYAMH, GISWNSGSIGYADSVS, VGRDGGYFDY: no signal (0 of 3 replicates; controls 1 of 9).
GFTFDDYAMH, GISWNSFSIGYADSVK, VGREGDYFDY: 100 nM (1 of 3 replicates; controls 0 of 9).
GFTFDDYAMH, GMSWNKGSIGYADSVK, VGRAGGYFDY: 29 µM (1 of 3 replicates; controls 1 of 9).
GFTFDDYAMH, GISDNSGSIGYADLVK, VGRFGGYFDY: 66 µM (2 of 3 replicates; controls 3 of 9).
GFTFDDYAMH, GISWNSGSIGYADSVK, VGRQGGYFDY: 1.5 µM (3 of 3 replicates; controls 0 of 9).
GHTFDDYAMH, GISWNSGSIGYADTVK, VGRFGGYFDY: no signal (0 of 3 replicates; controls 1 of 9).
GFTFDDYAMH, GISWNSGSDGYADSVK, HGRVGGYFDY: no signal (0 of 3 replicates; controls 3 of 9).
GFTFDDYAMH, GISSNSGSIGYADSVK, VGRNGGSFDY: 120 nM (3 of 3 replicates; controls 3 of 9).
GFTEDDYAMH, GISWNSGSIGYADYVK, VGRFGGYFDY: 14 µM (3 of 3 replicates; controls 2 of 9).
GFTFDDYAMH, GISWNSTSIGYAYSVK, VGRYGGYFDY: no signal (0 of 3 replicates; controls 1 of 9).
GFTFDDYAMH, GISWNSGSIGYADSVK, VGRFGGYDDQ: 88 µM (3 of 3 replicates; controls 8 of 9).
SFTFDDYAMH, GISWNSGPIGYADSVK, VGRDGGYFDY: 69 µM (1 of 3 replicates; controls 5 of 9).
GFTFDDYAMH, GISWNSGSLGYSDSVK, VGRRGGYFDY: no signal (0 of 3 replicates; controls 0 of 9).
GFTFDDYAMH, GISWNSGSIGYADSVK, DGRSEGYFDY: 24 µM (2 of 3 replicates; controls 1 of 9).
GFTFDDYAWH, GWSWNSGSIGYADSVK, VGRNGGYFDY: no signal (0 of 3 replicates; controls 0 of 9).
GFTFDDYAMH, GISWNSGSIGYAMSVK, VGRPGGGFDY: no signal (0 of 3 replicates; controls 2 of 9).

A selection of 5 entries from above:

CDR-H1,CDR-H2,CDR-H3,apparent Kd,detected,empty controls
GFTFDDDAMH,GISWNSQSIGYADSVK,VGRNGGYFDY,no signal,0 of 3,0 of 9
GFTFDDYAMH,GISWNSGSIGYADMVK,VGRTGGYFAY,96 µM,3 of 3,7 of 9
GFTFDDYAMH,GISWNSGSIGYADSVT,MGRNGGYFDY,no signal,0 of 3,0 of 9
GFTFDDYAMH,GISWNSGSIGYADSVI,VGRALGYFDY,2.0 µM,1 of 3,1 of 9
GFTFDDYAMH,GISWNSGKIGYADSVD,VGRQGGYFDY,no signal,0 of 3,0 of 9

Parent in this assay: reference entry 72 nM, copy in this library 7.5 nM.